Laboratory results taken from article PMC9569420 (Communications Biology, 2022).
Values joined by “and” are separate entries in the source; they are usually repeats but may differ in a detail not shown here. Equal entries are not always repeated.

Assays:
HIPK2 = target: T1, HIPK2 (Homo sapiens, UniProt Q9H2X6); experiment: HotSpot kinase assay; assay type: biochemical; settings: 10µM
T1 construct: purchased Reaction Biology Corporation

GCK/MAP4K2 = target: T2, GCK/MAP4K2 (Homo sapiens, UniProt Q12851); experiment: HotSpot kinase assay; assay type: biochemical; settings: 10µM
T2 construct: purchased Reaction Biology Corporation

EIF2AK1 = target: T3, EIF2AK1 (Homo sapiens, UniProt Q9BQI3); experiment: HotSpot kinase assay; assay type: biochemical; settings: 10µM
T3 construct: purchased Reaction Biology Corporation

RAF1 = target: T4, RAF1 (Homo sapiens, UniProt P04049); experiment: HotSpot kinase assay; assay type: biochemical; settings: 10µM
T4 construct: purchased Reaction Biology Corporation

RIPK2 = target: T5, RIPK2 (Homo sapiens, UniProt O43353); experiment: HotSpot kinase assay; assay type: biochemical; settings: 10µM
T5 construct: purchased Reaction Biology Corporation

BRSK1 = target: T6, BRSK1 (Homo sapiens, UniProt Q8TDC3); experiment: HotSpot kinase assay; assay type: biochemical; settings: 10µM
T6 construct: purchased Reaction Biology Corporation

HIPK1 = target: T7, HIPK1 (Homo sapiens, UniProt Q86Z02); experiment: HotSpot kinase assay; assay type: biochemical; settings: 10µM
T7 construct: purchased Reaction Biology Corporation

AMPK(A1/B1/G2) = target: T8, AMPK(A1/B1/G2) (Homo sapiens, UniProt Q13131); experiment: HotSpot kinase assay; assay type: biochemical; settings: 10µM
T8 construct: purchased Reaction Biology Corporation

TTBK1 = target: T9, TTBK1 (Homo sapiens, UniProt Q5TCY1); experiment: HotSpot kinase assay; assay type: biochemical; settings: 10µM
T9 construct: purchased Reaction Biology Corporation

TRKA = target: T10, TRKA (Homo sapiens, UniProt P04629); experiment: HotSpot kinase assay; assay type: biochemical; settings: 10µM
T10 construct: purchased Reaction Biology Corporation

EPHA5 = target: T11, EPHA5 (Homo sapiens, UniProt P54756); experiment: HotSpot kinase assay; assay type: biochemical; settings: 10µM
T11 construct: purchased Reaction Biology Corporation

IKKb/IKBKB = target: T12, IKKb/IKBKB (Homo sapiens, UniProt O14920); experiment: HotSpot kinase assay; assay type: biochemical; settings: 10µM
T12 construct: purchased Reaction Biology Corporation

JNK1 = target: T13, JNK1 (Homo sapiens, UniProt P45983); experiment: HotSpot kinase assay; assay type: biochemical; settings: 10µM
T13 construct: purchased Reaction Biology Corporation

FMS = target: T14, FMS (Homo sapiens, UniProt P07333); experiment: HotSpot kinase assay; assay type: biochemical; settings: 10µM
T14 construct: purchased Reaction Biology Corporation

TESK2 = target: T15, TESK2 (Homo sapiens, UniProt Q96S53); experiment: HotSpot kinase assay; assay type: biochemical; settings: 10µM
T15 construct: purchased Reaction Biology Corporation

PKCa = target: T16, PKCa (Homo sapiens, UniProt P17252); experiment: HotSpot kinase assay; assay type: biochemical; settings: 10µM
T16 construct: purchased Reaction Biology Corporation

MST2/STK3 = target: T17, MST2/STK3 (Homo sapiens, UniProt Q13188); experiment: HotSpot kinase assay; assay type: biochemical; settings: 10µM
T17 construct: purchased Reaction Biology Corporation

LIMK2 = target: T18, LIMK2 (Homo sapiens, UniProt P53671); experiment: HotSpot kinase assay; assay type: biochemical; settings: 10µM
T18 construct: purchased Reaction Biology Corporation

RIPK5 = target: T19, RIPK5 (Homo sapiens, UniProt Q6XUX3); experiment: HotSpot kinase assay; assay type: biochemical; settings: 10µM
T19 construct: purchased Reaction Biology Corporation

ZAP70 = target: T20, ZAP70 (Homo sapiens, UniProt P43403); experiment: HotSpot kinase assay; assay type: biochemical; settings: 10µM
T20 construct: purchased Reaction Biology Corporation

MKK7 = target: T21, MKK7 (Homo sapiens, UniProt O14733); experiment: HotSpot kinase assay; assay type: biochemical; settings: 10µM
T21 construct: purchased Reaction Biology Corporation

MEK2 = target: T22, MEK2 (Homo sapiens, UniProt P36507); experiment: HotSpot kinase assay; assay type: biochemical; settings: 10µM
T22 construct: purchased Reaction Biology Corporation

MRCKa/CDC42BPA = target: T23, MRCKa/CDC42BPA (Homo sapiens, UniProt Q5VT25); experiment: HotSpot kinase assay; assay type: biochemical; settings: 10µM
T23 construct: purchased Reaction Biology Corporation

STK22D/TSSK1 = target: T24, STK22D/TSSK1 (Homo sapiens, UniProt Q9BXA7); experiment: HotSpot kinase assay; assay type: biochemical; settings: 10µM
T24 construct: purchased Reaction Biology Corporation

MNK1 = target: T25, MNK1 (Homo sapiens, UniProt Q9BUB5); experiment: HotSpot kinase assay; assay type: biochemical; settings: 10µM
T25 construct: purchased Reaction Biology Corporation

TIE2/TEK = target: T26, TIE2/TEK (Homo sapiens, UniProt Q02763); experiment: HotSpot kinase assay; assay type: biochemical; settings: 10µM
T26 construct: purchased Reaction Biology Corporation

JAK2 = target: T27, JAK2 (Homo sapiens, UniProt O60674); experiment: HotSpot kinase assay; assay type: biochemical; settings: 10µM
T27 construct: purchased Reaction Biology Corporation

c-Kit = target: T28, c-Kit (Homo sapiens, UniProt P10721); experiment: HotSpot kinase assay; assay type: biochemical; settings: 10µM
T28 construct: purchased Reaction Biology Corporation

PKAcb = target: T29, PKAcb (Homo sapiens, UniProt P22694); experiment: HotSpot kinase assay; assay type: biochemical; settings: 10µM
T29 construct: purchased Reaction Biology Corporation

CK1g1 = target: T30, CK1g1 (Homo sapiens, UniProt Q9HCP0); experiment: HotSpot kinase assay; assay type: biochemical; settings: 10µM
T30 construct: purchased Reaction Biology Corporation

CDK2/cyclin A = target: T31, CDK2/cyclin A (Homo sapiens, UniProt P24941); experiment: HotSpot kinase assay; assay type: biochemical; settings: 10µM
T31 construct: purchased Reaction Biology Corporation

MKK4 = target: T32, MKK4 (Homo sapiens, UniProt P45985); experiment: HotSpot kinase assay; assay type: biochemical; settings: 10µM
T32 construct: purchased Reaction Biology Corporation

AMPK(A2/B2/G1) = target: T33, AMPK(A2/B2/G1) (Homo sapiens, UniProt P54646); experiment: HotSpot kinase assay; assay type: biochemical; settings: 10µM
T33 construct: purchased Reaction Biology Corporation

CDK6/cyclin D1 = target: T34, CDK6/cyclin D1 (Homo sapiens, UniProt Q00534); experiment: HotSpot kinase assay; assay type: biochemical; settings: 10µM
T34 construct: purchased Reaction Biology Corporation

KSR1 = target: T35, KSR1 (Homo sapiens, UniProt Q8IVT5); assay type: biochemical; settings: 10µM
T35 construct: purchased Reaction Biology Corporation

HSV-2(G) = experiment: HSV plaque assay, primary vaginal cells; assay type: cell-based
TRPM7/CHAK1 = target: T36, TRPM7/CHAK1 (Homo sapiens, UniProt Q96QT4); experiment: HotSpot kinase assay; assay type: biochemical; settings: 10µM
T36 construct: purchased Reaction Biology Corporation

PHKg2 = target: T37, PHKg2 (Homo sapiens, UniProt P15735); experiment: HotSpot kinase assay; assay type: biochemical; settings: 10µM
T37 construct: purchased Reaction Biology Corporation

RSK2 = target: T38, RSK2 (Homo sapiens, UniProt P51812); experiment: HotSpot kinase assay; assay type: biochemical; settings: 10µM
T38 construct: purchased Reaction Biology Corporation

MLCK2/MYLK2 = target: T39, MLCK2/MYLK2 (Homo sapiens, UniProt Q9H1R3); experiment: HotSpot kinase assay; assay type: biochemical; settings: 10µM
T39 construct: purchased Reaction Biology Corporation

ERBB2/HER2 = target: T40, ERBB2/HER2 (Homo sapiens, UniProt P04626); assay type: biochemical; settings: 10µM
T40 construct: purchased Reaction Biology Corporation

CAMK2d = target: T41, CAMK2d (Homo sapiens, UniProt Q13557); experiment: HotSpot kinase assay; assay type: biochemical; settings: 10µM
T41 construct: purchased Reaction Biology Corporation

PDK3/PDHK3 = target: T42, PDK3/PDHK3 (Homo sapiens, UniProt Q15120); experiment: HotSpot kinase assay; assay type: biochemical; settings: 10µM
T42 construct: purchased Reaction Biology Corporation

CO[C@@H]1[C@H](N(C)C(=O)CCC(=O)NCc2cn(CCCS(=O)(=O)O)nn2)C[C@H]2O[C@]1(C)n1c3ccccc3c3c4c(c5c6ccccc6n2c5c31)C(=O)NC4 [CIMSS]
% Enzyme Activity (relative to DMSO controls) (HIPK2): 17.11% | % Enzyme Activity (relative to DMSO controls) (GCK/MAP4K2): 4.56% | % Enzyme Activity (relative to DMSO controls) (EIF2AK1): 81.15% | % Enzyme Activity (relative to DMSO controls) (RAF1): 109.90% | % Enzyme Activity (relative to DMSO controls) (RIPK2): 40.54% | % Enzyme Activity (relative to DMSO controls) (BRSK1): 1.28% | % Enzyme Activity (relative to DMSO controls) (HIPK1): 33.68% | % Enzyme Activity (relative to DMSO controls) (AMPK(A1/B1/G2)): 1.23% | % Enzyme Activity (relative to DMSO controls) (TTBK1): 66.32% | % Enzyme Activity (relative to DMSO controls) (TRKA): -2.22% and -3.31% | % Enzyme Activity (relative to DMSO controls) (EPHA5): 52.25% | % Enzyme Activity (relative to DMSO controls) (IKKb/IKBKB): 31.51% | % Enzyme Activity (relative to DMSO controls) (JNK1): 24.80% | % Enzyme Activity (relative to DMSO controls) (FMS): 0.92% | % Enzyme Activity (relative to DMSO controls) (TESK2): 89.59% | % Enzyme Activity (relative to DMSO controls) (PKCa): 0.84% | % Enzyme Activity (relative to DMSO controls) (MST2/STK3): 3.40% | % Enzyme Activity (relative to DMSO controls) (LIMK2): 66.53% | % Enzyme Activity (relative to DMSO controls) (RIPK5): 22.32% | % Enzyme Activity (relative to DMSO controls) (ZAP70): 12.64% | % Enzyme Activity (relative to DMSO controls) (MKK7): 94.42% | % Enzyme Activity (relative to DMSO controls) (MEK2): 66.36% | % Enzyme Activity (relative to DMSO controls) (MRCKa/CDC42BPA): 68.39% | % Enzyme Activity (relative to DMSO controls) (STK22D/TSSK1): 2.56% | % Enzyme Activity (relative to DMSO controls) (MNK1): 41.13% | % Enzyme Activity (relative to DMSO controls) (TIE2/TEK): 7.23% | % Enzyme Activity (relative to DMSO controls) (JAK2): 0.89% | % Enzyme Activity (relative to DMSO controls) (c-Kit): 0.28% and -0.14% | % Enzyme Activity (relative to DMSO controls) (PKAcb): 1.23% | % Enzyme Activity (relative to DMSO controls) (CK1g1): 92.37% | % Enzyme Activity (relative to DMSO controls) (CDK2/cyclin A): 4.94% | % Enzyme Activity (relative to DMSO controls) (MKK4): 97.17% | % Enzyme Activity (relative to DMSO controls) (AMPK(A2/B2/G1)): 0.23% | % Enzyme Activity (relative to DMSO controls) (CDK6/cyclin D1): 61.17% | % Enzyme Activity (relative to DMSO controls) (KSR1): 86.36% | viral plaque numbers relative to the DMSO controls (HSV-2(G); dose 0.1, replicates (Fig 3a source data)): 74% and 73.4% and 64% and 57% | viral plaque numbers relative to the DMSO controls (HSV-2(G); dose 1, replicates (Fig 3a source data)): 70% and 69% and 45% and 52% | viral plaque numbers relative to the DMSO controls (HSV-2(G); dose 10, replicates (Fig 3a source data)): 26.8% and 30.9% and 10% and 14.36% | viral plaque numbers relative to the DMSO controls (HSV-2(G); dose 50, replicates (Fig 3a source data)): 30.9% and 30.2% and 14% and 25% | % Enzyme Activity (relative to DMSO controls) (TRPM7/CHAK1): 91.48% | % Enzyme Activity (relative to DMSO controls) (PHKg2): 17.90% | % Enzyme Activity (relative to DMSO controls) (RSK2): 1.58% | % Enzyme Activity (relative to DMSO controls) (MLCK2/MYLK2): 24.42% | % Enzyme Activity (relative to DMSO controls) (ERBB2/HER2): 34.05% | % Enzyme Activity (relative to DMSO controls) (CAMK2d): 0.88% | % Enzyme Activity (relative to DMSO controls) (PDK3/PDHK3): 94.81%
